The text below walks through data of publication PMC7845544 (Frontiers in Pharmacology, 2021).

Protein sequences, listed by entry. Tags and fused reporters are not part of them. Residues count along the entry.
UniProt P22888, 27-699: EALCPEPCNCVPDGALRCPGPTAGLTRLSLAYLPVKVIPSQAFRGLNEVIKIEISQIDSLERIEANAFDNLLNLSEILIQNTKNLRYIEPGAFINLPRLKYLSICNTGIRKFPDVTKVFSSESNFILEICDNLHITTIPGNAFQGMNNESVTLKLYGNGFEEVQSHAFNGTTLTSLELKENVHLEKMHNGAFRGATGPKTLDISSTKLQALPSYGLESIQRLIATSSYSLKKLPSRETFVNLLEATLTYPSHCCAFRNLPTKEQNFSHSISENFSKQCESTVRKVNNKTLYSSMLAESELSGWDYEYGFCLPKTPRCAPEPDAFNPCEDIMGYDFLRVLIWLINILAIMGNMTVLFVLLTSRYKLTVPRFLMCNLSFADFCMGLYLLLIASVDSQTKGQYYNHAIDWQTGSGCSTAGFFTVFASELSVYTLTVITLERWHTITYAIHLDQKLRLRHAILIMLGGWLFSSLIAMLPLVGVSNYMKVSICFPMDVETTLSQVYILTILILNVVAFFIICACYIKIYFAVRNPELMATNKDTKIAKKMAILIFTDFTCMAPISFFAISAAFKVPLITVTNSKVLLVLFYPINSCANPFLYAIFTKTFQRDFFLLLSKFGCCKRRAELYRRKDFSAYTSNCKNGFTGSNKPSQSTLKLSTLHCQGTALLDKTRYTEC

Read-outs that look alike come from different tables or passages of the source.

The target of test [1] is T1, hTSHR (Homo sapiens, UniProt P16473).
T1 construct: expressed in transfected cells
As to the kind of experiment: cAMP (HTRF) in CHO cells transfected with hTSHR. The settings on record: mean ± SEM. It counts as cell-based. On the procedure: (§1) Chinese hamster ovary (CHO) cells transfected with hFSHR, hLHR or hTSHR were grown as described previously ([Kelton et al., 1992]; [Persani et al., 1993]; [Yu et al., 2014]). In brief, CHO-hFSHR and CHO-hTSHR were maintained in DMEM/F12 + 10% FBS in T150 culture flasks. The cells were cultured until they reached 70–80% confluence (three days) and were then used for assays or passaged. CHO-hLHR ([van de Lagemaat et al., 2009]; [Sriraman et al., 2014]) was cultured in MEM alpha (++) +10% FBS and G418, and passaged every three days. CHO-hFSHR or −hLHR or −hTSR cells (2,500/well) were plated in 5 µL of phenol red free DMEM/F12 + 1% FBS in 384 well solid white low volume plates (Greiner 784075) by Multidrop. Compounds were tested in the presence or absence of an EC20 concentration of hFSH (0.16 pM), hCG (0.2 pM) or hTSH (13 pM), in their corresponding assays. […] The plates were incubated at 37°C for 1 h. After the incubation period, cAMP was measured by HTRF® (homogeneous time-resolved fluorescence) assay (CisBio, Bedford, MA). […] An increase in cellular cAMP leads to a decrease in fluorescence resonance energy transfer, which is detectable as a decrease in the emission at 665 nm, measured by Envision fluorescence reader (PerkinElmer, Waltham, MA). The readout was calculated fluorescence ratio (665/620 nm). […]

The target of test [2] is T2, hLH/CGR (Homo sapiens, UniProt P22888).
T2 construct: expressed in transfected cells
In words: cAMP (HTRF) in CHO cells transfected with hLH/CGR. The format is cell-based. The settings on record: maximal cAMP vs maximal response of hCG; mean ± SEM. The protocol:
Chinese hamster ovary (CHO) cells transfected with hFSHR, hLHR or hTSHR were grown as described previously ([Kelton et al., 1992]; [Persani et al., 1993]; [Yu et al., 2014]). In brief, CHO-hFSHR and CHO-hTSHR were maintained in DMEM/F12 + 10% FBS in T150 culture flasks. The cells were cultured until they reached 70–80% confluence (three days) and were then used for assays or passaged. CHO-hLHR ([van de Lagemaat et al., 2009]; [Sriraman et al., 2014]) was cultured in MEM alpha (++) +10% FBS and G418, and passaged every three days. CHO-hFSHR or −hLHR or −hTSR cells (2,500/well) were plated in 5 µL of phenol red free DMEM/F12 + 1% FBS in 384 well solid white low volume plates (Greiner 784075) by Multidrop. […] The plates were incubated at 37°C for 1 h. After the incubation period, cAMP was measured by HTRF® (homogeneous time-resolved fluorescence) assay (CisBio, Bedford, MA). In brief, conditioned media were incubated with cryptate-labeled cAMP antibody and d2-labeled cAMP in lysis buffer for 1 h. Free cAMP produced by cells competes with cAMP-d2 for binding to the anti-cAMP cryptate. An increase in cellular cAMP leads to a decrease in fluorescence resonance energy transfer, which is detectable as a decrease in the emission at 665 nm, measured by Envision fluorescence reader (PerkinElmer, Waltham, MA). The readout was calculated fluorescence ratio (665/620 nm). […]

For test [3], the system named is immature SD rats. As to the kind of experiment: Superovulation assay in immature rats. It counts as in vivo, rat. The settings on record: low dose of FSH 0.29 IU. On the procedure: Immature SD rats and B6C3F1 mice (both 18–21 day old females) were purchased from Charles-River laboratories (Wilmington, MA, United States and Shanghai, China). All animals were treated in accordance to Chempartner (Shanghai, China) or Embryotech (Haverhill, MA, United States) IACUC approved animal protocols. The animals were provided water and food ad libitum and housed under 12 h dark and 12 h light schedules.
Immature rats and mice were used to investigate the ability of the small molecules to induce follicular development and support ovulation as described elsewhere ([Steelman and Pohley, 1953]) with modifications ([Sriraman et al., 2014]). Briefly, as reference standard, rh-follitropin-α (rec-hFSH [0.29 or 1.16 IU]) was administered as a subcutaneous injection every 12 h for a total of four doses, and r-hCG [1.75 IU] was provided with FSH at first and last injections. […] The isolated COC’s were treated with hyaluronidase and the total number of ovulated oocytes was determined microscopically.
Rats or mice that received small molecule were also treated with hCG (1.75 IU × 2) and low dose FSH [0.29 IU × 4], following methods we previously established ([Sriraman et al., 2014]). […] Plasma concentrations of FSHR-AA were measured during superovulation assays, except for experiments where plasma was collected for estradiol measurements.

Test [4] deals with T3, hFSHR (Homo sapiens, UniProt P23945).
T3 construct: expressed in transfected cells
T3 sequence (P23945 18-695): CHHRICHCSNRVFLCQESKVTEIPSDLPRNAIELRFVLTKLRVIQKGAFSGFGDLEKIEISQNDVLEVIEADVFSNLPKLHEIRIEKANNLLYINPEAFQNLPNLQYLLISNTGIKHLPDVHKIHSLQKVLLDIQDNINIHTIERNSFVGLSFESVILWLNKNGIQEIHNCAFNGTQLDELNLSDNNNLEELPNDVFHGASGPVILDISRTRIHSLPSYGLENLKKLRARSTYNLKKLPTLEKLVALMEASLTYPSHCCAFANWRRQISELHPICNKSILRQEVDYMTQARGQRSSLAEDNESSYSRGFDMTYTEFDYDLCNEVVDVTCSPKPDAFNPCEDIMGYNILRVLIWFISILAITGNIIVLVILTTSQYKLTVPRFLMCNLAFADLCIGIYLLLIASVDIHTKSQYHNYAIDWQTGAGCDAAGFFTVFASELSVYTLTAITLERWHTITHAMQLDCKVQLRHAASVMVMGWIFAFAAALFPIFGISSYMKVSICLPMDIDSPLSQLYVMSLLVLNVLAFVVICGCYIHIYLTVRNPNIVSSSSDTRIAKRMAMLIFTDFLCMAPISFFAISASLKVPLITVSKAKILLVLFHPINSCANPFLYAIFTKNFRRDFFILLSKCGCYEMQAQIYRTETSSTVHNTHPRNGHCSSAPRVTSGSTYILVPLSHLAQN
In words: cAMP (HTRF) in CHO cells transfected with hFSHR. The format is cell-based. The settings on record: maximal cAMP vs maximal response of protein ligand FSH; mean ± SEM. The protocol: as §1
For orientation: TR-FRET usually uses a lanthanide donor and a delayed reading to cut background.

Test [5] deals with human granulosa cells. As to the kind of experiment: Estradiol production by human granulosa cells from individual patients by diagnosis (NOR, ARA, PCOS). It counts as cell-based. The settings on record: FSH (20 nM) or TOP5300 (400 nM). On the procedure: Human granulosa cells were prepared from the spent follicular fluid of women undergoing IVF treatment at Boston IVF Center (Waltham, MA, United States) and at Family Fertility Center (Baylor College of Medicine, Houston, TX, United States) following methods previously established ([Breckwoldt et al., 1996]; [Amsterdam et al., 2003]). Institutional review board approval and informed consent from the patients were obtained before collecting the follicular fluid samples. In brief, red blood cells (RBCs) in the follicular aspirate were lyzed using RBC lysis buffer (Quality Biological Inc., Gaithersburg, MD, United States), and washed extensively with PBS and DMEM/F12 containing 5% FBS, fungizone, and the antibiotics penicillin (100 IU/ml) and streptomycin (100 μg/ml). Subsequently, cells from the aspirate were plated in T75 flasks, cultured for 7 days with fresh media being replaced every other day. At the end of the culture period, cells were released from the flask by trypsin and transferred to 96-well plates (5,000 cells/well, Greiner Bio-One). Following 48 h of culture, media in culture wells was replaced with serum free media containing 0.1% BSA and 10^−7 M androstenedione. Following 24 h of serum starvation, cells were stimulated with fresh media (0.1% BSA, 10^−7 M androstenedione) with FSH or compound for 48 h. Supernatant was collected and stored at −80C for determination of estradiol by ELISA.
Clinical definitions of patient sub-populations for patients at Texas Fertility followed guidelines outlined by the Practice Committee of the American Society for Reproductive Medicine ([Practice Committee of the American Society for Reproductive Medicine, 2015]). […] Advanced reproductive age (ARA) was defined as woman of 35 years old or greater in age, based on the definition of advanced maternal age by Society for Maternal-Fetal Medicine. […]

For test [6], the system named is rat granulosa cells. As to the kind of experiment: Rat granulosa cell assay measuring secreted estradiol. The format is cell-based. As to conditions: 24 h, mean ± SEM. The protocol: All animals were maintained and handled under IACUC approved procedures at the respective institutions providing contracted service for TocopheRx, following procedures previously approved by local (MA, United States) IACUC reviews ([Sriraman et al., 2014]; [Yu et al., 2014]). Ovarian follicular granulosa cells were isolated from rats implanted with DES pellets (1 mg/day; 7-days release) at ChemPartner (Shanghai, China). The pellets were implanted subcutaneously on 22 day old rats with trochar, employing aseptic techniques after isoflurane anesthesia. Animals were euthanized on post-op day 3, ovaries were excised, cleaned, and granulosa cells were isolated by repeated disruption of the follicle as described previously. Granulosa cells isolated from four to five rats were used to culture one 96-well plate and an equal number of cells was plated in each well. The cells were cultured overnight at 37°C in media containing 5% FBS.
After overnight culture, the media was replaced with serum free media containing 0.1% BSA and 100 nM androstenedione. […] A dose response curve with a 4-fold dilution of rec-hFSH starting at highest concentration of 5 nM and a two-fold dilution of small molecule FSHR-AA starting at highest concentration of 10 μM at eight different concentrations was tested. After 24 h of treatment, supernatant was collected and estradiol concentration was determined by ELISA (DRG, Mountainside, NJ, United States). The optical densities of the estradiol ELISA were measured by Spectramax (Sunnyvale, CA, United States). The values were analyzed in Microsoft Excel and Graphpad Prism (San Diego, CA, United States).

For the substance “TSH: thyroid stimulating hormone, protein ligand standard of the CHO-hTSHR assay”, the concentration giving a half-maximal response (EC50) in test [1] (compounds in presence of EC20 ligand (Figure 1 legend)) came out at 0.0827 nM. Also, the “% Response, CHO-hTSHR” value in test [1] (maximal cAMP vs maximal response of TSH) is 100%.
Consider “hCG: human chorionic gonadotropin, bulk preparation of Merck KGaA (choriogonadotropin-α)”, for which, in test [2], the “% Response, CHO-hLH/CGR” value was found to be 100%.
For “hFSH: Recombinant human FSH, bulk preparation of Merck KGaA (follitropin-α)”, the “activity in superovulation assays relative to FSH 1.16 IU” value in test [3] amounted to 20%. Further, the “% Response, CHO-hFSHR” value in test [4] was found to be 100%. Further, the “Estradiol (pg/ml), ARA (n = 6)” value in test [5] (advanced reproductive age, mean ± SD) is 4,818 + 8,928 pg/ml. Moreover, the “Estradiol (pg/ml), NOR (n = 2)” value in test [5] (normal ovarian reserve, mean) is listed as 7,089 pg/ml. The “Estradiol (pg/ml), PCOS (n = 4)” value in test [5] (polycystic ovarian disease, mean ± SD) is 613 ± 1,133 pg/ml. For the same substance, the “% Response, estradiol, +EC20 FSH” value in test [6] (+EC20 FSH) is on record as 100%. Also, the EC50 in test [6] (+EC20 FSH, read-out: EC50 (M), estradiol, +EC20 FSH) was found to be 5.1e-11 M; in test [6] (No FSH, read-out: EC50 (M), estradiol, No FSH) it was 5.35e-11 M. For the same substance, in test [6] (No FSH), the “% Response, estradiol, No FSH” value is given as 100%.

As usually defined, the EC50 is the concentration giving half of the maximal effect.
